According to PMC13503787:

Molecular target: RPB1, the largest subunit of RNA polymerase II (Pol II) (human (endogenous in HCT-116)) (UniProt P24928)
Assay: co-IP; nuclear fraction of HCT-116 RAD21-mAID cells (Benzonase lysis, washes with 200 mM NaCl, 0.1% NP-40); cells treated with DRB for 3 h and harvested 20 min after DRB removal, with or without auxin (RAD21 depletion); Pol II precipitated with antibodies against RPB1 CTD or Ser2-phosphorylated …; blots of PAF1, CDC73, CTR9

Substance	level co-precipitated after auxin treatment, percent of control, normalized to RPB1 [%]
CDC73 (from UniProt Q6P1J9 1-531) (natural protein)	55
CTR9 (from UniProt Q6PD62 1-1173) (natural protein)	75
PAF1 (from UniProt Q8N7H5 1-531) (natural protein)	59
